The results in this text go back to publication PMC9895061, “Celastrol suppresses colorectal cancer via covalent targeting peroxiredoxin 1” (Signal Transduction and Targeted Therapy, 2023).

The test system of one assay is SW620 cells. In words: Cell viability by trypan blue staining, SW620. Conditions: 1, 2 μM, 24 h.
The next assay deals with HCT116 cells. The assay can be described thus: Cell viability by trypan blue staining, HCT116. Conditions: 1, 2 μM, 24 h.
A further assay concerns the target T1, PRDX1 (Homo sapiens, UniProt Q06830).
T1 sequence (Q06830 1-199): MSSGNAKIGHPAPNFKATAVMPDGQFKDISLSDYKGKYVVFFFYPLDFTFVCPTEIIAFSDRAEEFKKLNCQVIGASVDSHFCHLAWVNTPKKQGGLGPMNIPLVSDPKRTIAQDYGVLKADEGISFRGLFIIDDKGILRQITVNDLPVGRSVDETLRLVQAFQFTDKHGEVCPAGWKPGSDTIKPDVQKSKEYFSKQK
The assay can be described thus: Determination of Kinact and Ki for inhibition of PRDX1's peroxidase activity. The format is biochemical.

As for `CC1=C(O)C(=O)C=C2C1=CC=C1[C@@]2(C)CC[C@@]2(C)[C@@H]3C[C@](C)(C(=O)O)CC[C@]3(C)CC[C@]12C` [Celastrol], the “cell viability at high concentrations, SW620 (in words)” value in the assay with SW620 cells is recorded as “significantly decreased cell viability”. Also, the “cell viability at high concentrations, HCT116 (in words)” value in the assay on HCT116 cells is recorded as “significantly decreased cell viability”. In addition, the kinact at PRDX1 was 0.00333 s⁻¹.
